Here are results for four substances from patent US9580464B2, “Anti-inflammatory proteins and peptides and methods of preparation and use thereof” (ManukaMed Limited, priority 2012, dated 2017).

This assay concerns the target Cathepsin B from bovine spleen (Bos taurus, UniProt P07688). Description: Assay for Cathepsin B activity / inhibition (Z-Lys-pNP substrate, absorbance 330 nm). It counts as biochemical.

In the case of “Ac-SK-OH (N-terminal acetyl) [synthetic peptide derived from the C-terminus of MRJP3]”, the “Cathepsin B remaining activity (% of control)” value (Table 3, peptides from C-terminus of MRJP3, 2 mM MGO-modified peptide) is 115.94 ± 1.24 and the “Cathepsin B remaining activity (% of control)” value (Table 3, peptides from C-terminus of MRJP3, 2 mM unmodified peptide) is reported as 137.62 ± 9.65.

Regarding “Ac-KS-OH (N-terminal acetyl) [synthetic peptide derived from the C-terminus of MRJP4]”, the “Cathepsin B remaining activity (% of control)” value runs as follows: (Table 4, peptides from C-terminus of MRJP4, 2 mM MGO-modified peptide) 110.69 ± 0.89; (Table 4, peptides from C-terminus of MRJP4, 2 mM unmodified peptide) 135.26 ± 7.09.

As to “Ac-KH-OH (N-terminal acetyl) [synthetic peptide derived from the C-terminus of MRJP5]”, the “Cathepsin B remaining activity (% of control)” value is, setting by setting: (Table 5, peptides from C-terminus of MRJP5, 2 mM MGO-modified peptide) 115.95 ± 5.94; (Table 5, peptides from C-terminus of MRJP5, 2 mM unmodified peptide) 230.49 ± 16.21.

On to “Ac-KN-OH (N-terminal acetyl) [synthetic peptide derived from the C-terminus of MRJP2]”, for which the “Cathepsin B remaining activity (% of control)” value (Table 2, peptides from C-terminus of MRJP2, 2 mM MGO-modified peptide) worked out at 111.84 ± 6.21 and the “Cathepsin B remaining activity (% of control)” value (Table 2, peptides from C-terminus of MRJP2, 2 mM unmodified peptide) was found to be 149.55 ± 4.42.
